We go through 5 compounds from ChEMBL document CHEMBL1145271 (Bioorg Med Chem Lett, 2005).

Sequences of proteins named here, by UniProt entry; tags and fusion partners are left off. A change or cut given only in a name is not applied to a line headed by its entry.
UniProt P41145: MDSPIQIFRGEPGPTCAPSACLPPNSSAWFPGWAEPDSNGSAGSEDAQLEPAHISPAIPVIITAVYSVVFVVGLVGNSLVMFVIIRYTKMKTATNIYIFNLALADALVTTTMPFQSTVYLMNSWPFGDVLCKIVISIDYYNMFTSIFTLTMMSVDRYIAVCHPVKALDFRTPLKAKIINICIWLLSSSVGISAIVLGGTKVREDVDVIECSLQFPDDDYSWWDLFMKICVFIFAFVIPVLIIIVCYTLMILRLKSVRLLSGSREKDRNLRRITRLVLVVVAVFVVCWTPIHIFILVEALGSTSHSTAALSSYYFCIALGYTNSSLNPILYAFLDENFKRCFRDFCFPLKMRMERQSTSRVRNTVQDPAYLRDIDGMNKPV

Test [1] deals with T1, Kappa-type opioid receptor (Homo sapiens, UniProt P41145). Nature of the test: Activation of human Opioid receptor kappa 1 expressed in chinese hamster ovary cells to enhance [35S]GTP-gamma-S, binding compared to U50,488H. In kind it is functional, cell-based. The method, boiled down:
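Agonist efficacy at human κ-opioid receptor, read as enhancement of [35S]GTPγS binding and expressed as % of the maximal response to U50,488H. Mean of at least three independent experiments, each run in duplicate.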
Background: GTPγS is a poorly hydrolysed GTP analogue; its binding reports G protein activation.

The target in test [2] is T1, Kappa-type opioid receptor. The experiment in a line: Inhibition of [3H]diprenorphine binding to human Opioid receptor kappa 1 expressed in chinese hamster ovary cells. In kind it is cell-based, CHO. An outline of the steps:
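Ki from inhibition of [3H]diprenorphine binding to human κ-opioid receptor. Mean of at least three independent experiments, each run in duplicate.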

Test [3] concerns the target T1, Kappa-type opioid receptor. The experiment in a line: Effective concentration for activation of human Opioid receptor kappa 1 expressed in chinese hamster ovary cells to enhance [35S]GTP-gamma-S, binding. In kind it is functional, cell-based. An outline of the steps: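 EC50 for human κ-opioid receptor activation, read as enhancement of [35S]GTPγS binding. Mean of at least three independent experiments, each run in duplicate.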

`CCCCO[C@H]1C[C@@H](C(=O)OC)[C@]2(C)CCC3C(=O)O[C@H](c4ccoc4)C[C@]3(C)[C@H]2C1=O` (some centres not stated): in test [1], the Efficacy turned out to be 105%.

As for `COC(=O)[C@@H]1C[C@H](OCc2ccccc2)C(=O)[C@H]2[C@@]1(C)CCC1C(=O)O[C@H](c3ccoc3)C[C@@]12C` (some centres not stated), the Efficacy in test [1] was 102%.

In the case of `CCN[C@@H]1C[C@@H](C(=O)OC)[C@]2(C)CC[C@H]3C(=O)O[C@H](c4ccoc4)C[C@]3(C)[C@H]2C1=O`, the Efficacy in test [1] came to 111%.

The compound `CCO[C@H]1C[C@@H](C(=O)OC)[C@]2(C)CC[C@H]3C(=O)O[C@H](c4ccoc4)C[C@]3(C)[C@H]2C1=O` [DEOXY SALVINORIN A] showed a Ki in test [2] of 7.9 nM. For the same compound, the EC50 in test [3] is 18.6 nM.

The compound `COC(=O)[C@@H]1C[C@H](O)C(=O)[C@H]2[C@@]1(C)CC[C@H]1C(=O)O[C@H](c3ccoc3)C[C@]21C` [SALVINORIN B] returned an inhibition constant (Ki) in test [2] of 155 nM. Besides, the EC50 in test [3] turned out to be 371 nM.

What is called Ki is the dissociation constant of the complex between target and ligand, obtained from inhibition or displacement. Read a low Ki as higher affinity. As usually defined, the EC50 is the concentration at which the effect is half-maximal.
